Data set [1] has as its target Na^+/K^+-ATPase (α1β1 isozyme) (Anas platyrhynchos, UniProt Q6TG02+Q7ZYV1). Briefly: Isothermal titration calorimetry of binding to Na+/K+-ATPase. Further details: species or system duck (salt glands). The conditions noted are these: ITC, 25°C, 10 mM imidazole buffer (pH 7.5), 130 mM NaCl, 30 mM KCl, 3 mM MgCl2. Here is the method:
The purified preparation of Na^+/K^+-ATPase (α1β1 isozyme) was obtained from duck salt glands as described elsewhere ([Petrushanko et al., 2016]).
The thermodynamic parameters of amyloid peptides binding to Na^+/K^+-ATPase were measured using a MicroCal iTC200 instrument, as described elsewhere ([Mitkevich et al., 2012]; [Petrushanko et al., 2014]). Experiments were carried out at 25°C in 10 mM imidazole buffer (pH 7.5), containing 130 mM NaCl, 30 mM KCl, 3 mM MgCl2. Aliquots (2.6 μl) of ligands were injected into a 0.2-ml cell containing protein solution to achieve a complete binding isotherm. Protein concentration in the cell ranged from 10 to 20 μM, and ligand concentration in the syringe ranged from 100 to 200 μM. The resulting titration curves were fitted using the MicroCal Origin software, assuming one set of binding sites. Affinity constants (Ka), enthalpy variations (ΔH) and stoichiometry of binding (N) were determined and the Gibbs energy (ΔG) and entropy variations (ΔS) were calculated from the equation: ΔG = −RTlnKa = ΔH-TΔS.
A general note: Isothermal titration calorimetry measures the heat released or taken up as one component is titrated into another.

Data set [2] has as its target Na+/K+-ATPase (α1β1 isozyme) from duck salt glands (duck). Kind of data set: ITC; peptide (100-200 μM, syringe) injected into Na+/K+-ATPase (10-20 μM, cell); 25°C; 10 mM imidazole pH 7.5, 130 mM NaCl, 30 mM KCl, 3 mM MgCl2; fit with one set of binding sites.
The conditions of data set [3]: presence of Zn2+, cited from earlier work. From the text:
The amyloid-beta peptide (Aβ) is a normal subnanomolar component of biological fluids ([Masters and Selkoe, 2012]); however, its deposition in the form of amyloid plaques is one of the hallmarks of AD ([Selkoe and Hardy, 2016]). Amyloid plaques are associated with neuronal loss and cognitive impairment ([Musiek and Holtzman, 2015]), and they enhance the tau pathology ([He et al., 2017]). The trigger of the pathologic Aβ aggregation in AD is unknown ([Musiek and Holtzman, 2015]); however, in animal models of AD, the conversion of a monomeric Aβ into fibrillar aggregates, through neurotoxic olig ... || Recently, it has been shown that Aβ undergoes phosphorylation at Ser8 both in vitro and in vivo ([Kumar et al., 2011], [2013]). […] It was the first evidence of the facilitation of cerebral amyloidosis by a synthetic Aβ species injected int ...

As to “Aβ16: N-terminal zinc-binding (metal-binding) domain of Aβ, residues 1–16 (DAEFRHDSGYEVHHQK)”, in data set [1], the “detectability of binding to Na+,K+-ATPase” value was “but not for the 1–16 fragment”.

Regarding β-amyloid peptide 1–42 (Aβ42), in data set [2], the stoichiometry N came to 1. Consider “pS8-Aβ16: metal-binding domain of pS8-Aβ (DAEFRHDSGYEVHHQK; Amyloid-beta phospho-Ser8; UniProt P05067 672-687, looked up, fragment)”, for which, in data set [3] (ref Istrate et al., 2016), the “zinc-induced oligomerization of metal-binding domain” value is “do not give rise to larger oligomers and aggregates”. For the same substance, the “zinc-induced dimer formation of metal-binding domain” value in data set [3] (ref Kulikova et al., 2014) is recorded as “forms stable dimers”. “β-amyloid peptide 1–42 phosphorylated at Ser8 (pS8-Aβ42)”: in data set [2], the dH was -10.6 kJ/mol and the stoichiometry N was 1.

By stoichiometry N is commonly meant a count of units in the complex or per binding partner.

The record behind these values is paper PMC6123382, “Phosphorylation of the Amyloid-Beta Peptide Inhibits Zinc-Dependent Aggregation, Prevents Na,K-ATPase Inhibition, and Reduces Cerebral Plaque Deposition” (Frontiers in Molecular Neuroscience, 2018).
